From PubChem BioAssay
PTAP TSG101 blk – blocks PTAP/TSG101 interaction to inhibit HIV-1 budding. 340,000 tested, under 10 active. Fluorescence polarization, FITC-PTAP peptide / Tsg101 binding. AID 493005. Q99816. Potency, µM (highest dose often 115 µM), without a hit: at the highest dose activity change, negative = inhibition, most hits filed as inhibitors; active = well fitted inhibition curve with a large enough effect in the main read-out, with a control signal flat, not every such curve was filed as active; inconclusive = small, poorly fitted or top-dose-only effect, or effect the other way, or a change in a side signal; inactive = no such curve, though single readings can be large or run the other way; note: potency is the fitted concentration of half-maximal effect; % of control where 0% means no effect
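Steps: Tsg101 binding domain dispensed (10 uM final), compounds pinned in DMSO, FITC-labeled PTAP-motif peptide added (50 nM final); after 20 min binding at room temperature, polarization measured.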
A549 viability – counter-screen for Nrf2 inhibitors: cytotoxicity in A549 cells | AID 504648 | actives 0.16% (n = 390,000) | A549 ARE-Fluc cells, CellTiter-Fluor viability, 18-24 h | Potency, µM (highest dose often 46 µM), inactives show at the highest dose activity change, negative = cytotoxicity, hits mostly inhibitors; note: potency is the fitted concentration of half-maximal effect; % is set by controls: 0 for no effect and ±100 for the full control effect
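A549 ARE-Fluc cells in 5% FBS OPTI-MEM, 5000 cells/well, rested 2 h then exposed to compounds in concentration-response for 18-24 h at 37 °C. Viability by CellTiter-Fluor fluorescence (Ex 405/Em 525) after 30 min; luciferase luminescence (BugLite, 15 min, RT) read afterwards.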
Nrf2 inh – inhibitors of Nrf2 signaling. A549 ARE-Fluc reporter, luciferase luminescence, 18-24 h. Potency, µM (top dose mostly 46 µM), inactives show top-dose activity change, negative = inhibition, most hits filed as inhibitors. actives 2.1% (n = 360,000); note: potency is the fitted concentration of half-maximal effect; % is set by controls: 0 for no effect and ±100 for the full control effect; nearly all actives have a fitted effect of over 60% in size
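A549 ARE_Fluc cells (5000/well, 5% FBS OPTI-MEM) pre-incubated 2 h, then treated with compounds 18-24 h at 37C/5% CO2 in concentration-response. CellTiter-Fluor viability read first; BugLite luciferase luminescence after 15 min at room temperature gives Nrf2 activity.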
miR-21 reporter – raises the signal of a miR-21 reporter | HeLa miR-21 FLuc reporter, luciferase, 48 h | Potency, µM (highest dose often 38.3 µM), for inactives: at the highest dose reporter change, positive = more light | 340,000 tested, under 10 active | AID 2288; active = well fitted rising curve with a large enough effect; inconclusive = small, poorly fitted or top-dose-only effect; inactive = no such curve, though single readings can be large or run the other way;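 also: % of control where 0% means no effect; miR-21 action dims this reporter so a rising signal means less miR-21 action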
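Compounds were titrated across several concentrations (up to approximately 40 uM) and incubated 48 hours with HeLa miR-21-FLuc reporter cells (miR-21 target sequence downstream of FLuc, endogenous miR-21). Readout was firefly luciferase luminescence after lytic detection reagent.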
Nrf2 ARE act – activators of Nrf2 (ARE) signaling; AREc32 ARE-luciferase reporter (MCF7-derived line), luminescence, 24 h; Potency, µM (series often up to 46.1 µM), without a hit: at the top dose activation, actives largely listed as activators; actives 0.31% (n = 410,000); AID 624171; note: potency is the fitted concentration of half-maximal effect; % of control where 0% means no effect; nearly all actives have a fitted effect of over 65% in size
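AREc32_Fluc, 1000 cells/well, OPTI-MEM + 5% FBS, o/n 37 deg C 5% CO2; 23 nL cpd by pin tool, 24 hr; Steady-Glo 30 min RT, luminescence.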
Glioma ERSR ind – inducers of ER stress response in human glioma cells. Potency, µM, without a hit: top-dose activation, most hits filed as activators. actives 0.02% (n = 420,000). U87-MG GRP78 promoter luciferase reporter, 16 h; note: potency is the fitted concentration of half-maximal effect; series mostly up to about 76 µM; % of control where 0% means no effect; nearly all actives have a fitted effect of over 35% in size
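ERSR induction read as luciferase luminescence (Bright-Glo, 10 min at room temperature) in stably transfected human U87-MG glioma cells exposed to compounds for 16 h, using GRP78 as sensor.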
* marks the source's active call; other numbers are inactive results. Sampled rows, rich in hits. Any-hit rate of the full collection: about 2.1%. Unless noted, calls come from the whole dose curve; as a rule, active = well fitted curve in the direction sought with a large enough effect; inconclusive = small, poorly fitted or top-dose-only effect, or another doubt; inactive = no such curve, though single readings can be large; an effect the other way counts as inactive or inconclusive.

What do the screens show for `CCOc1ccc(N(CC)S(=O)(=O)N2CCCC(C(=O)Nc3ccc(OC)c(OC)c3)C2)cc1` (stereo not given)?
A549 viability: 12%; Nrf2 inh: 21µM*; miR-21 reporter: -4%; Nrf2 ARE act: 1%; Glioma ERSR ind: -4%

How did COc1cccc(CNc2ncnc3ccc(-c4c(C)noc4C)cc23)c1 do in these assays?
A549 viability: -1%; Nrf2 inh: 12µM*; Nrf2 ARE act: 26%; Glioma ERSR ind: -4%

What do the screens show for `O=c1[nH]c2ccc(S(=O)(=O)N3CCN(S(=O)(=O)c4c(F)cccc4F)CC3)cc2[nH]c1=O`?
A549 viability: -10%; Nrf2 inh: 4%

What do the screens show for `CC(=O)Nc1cccc(NC(=O)CSc2ncc(-c3ccc(Cl)cc3)n2Cc2ccco2)c1`?
PTAP TSG101 blk: -1%; A549 viability: -26%; Nrf2 inh: 18µM*; miR-21 reporter: inconclusive; Nrf2 ARE act: -1%; Glioma ERSR ind: -13%

How did COc1cc(C(=O)Oc2cccc(Nc3ncnc4ccccc34)c2)cc(OC)c1OC do in these assays?
PTAP TSG101 blk: -9%; A549 viability: -17%; Nrf2 inh: 15µM*; miR-21 reporter: 24%; Nrf2 ARE act: -1%; Glioma ERSR ind: -3%

What do the screens show for `CCOC(=O)C1=C(C)NC(C)=C(C(=O)OCC)C1c1cn(-c2ccccc2)nc1-c1ccco1`?
PTAP TSG101 blk: -4%; A549 viability: -9%; Nrf2 inh: -13%; miR-21 reporter: -4%; Nrf2 ARE act: 5%; Glioma ERSR ind: -6%

What do the screens show for `CC(C)OC(=O)c1cn(-c2ccccc2)nc1-c1ccco1`?
PTAP TSG101 blk: -1%; A549 viability: 1%; Nrf2 inh: -10%; miR-21 reporter: 3%; Nrf2 ARE act: 3.2µM*; Glioma ERSR ind: -6%

Results for CCCCC(CC)C(=O)Nc1ncc([N+](=O)[O-])s1 (stereo not given) ?
PTAP TSG101 blk: 0%; A549 viability: 18µM*; Nrf2 inh: 9.2µM*; miR-21 reporter: -2%; Nrf2 ARE act: 11%; Glioma ERSR ind: -6%

Results for Cc1ccc(CC(=O)Nc2ncc([N+](=O)[O-])s2)cc1 ?
PTAP TSG101 blk: 0%; A549 viability: -16%; Nrf2 inh: inconclusive; miR-21 reporter: -37%; Nrf2 ARE act: -1%; Glioma ERSR ind: -4%

How did COc1ccc(OC)c(C2NC(=O)NC(C)=C2C(=O)OCc2ccccc2)c1 (stereo not given) do in these assays?
PTAP TSG101 blk: -4%; A549 viability: 7%; Nrf2 inh: -29%; miR-21 reporter: -5%; Nrf2 ARE act: 0%; Glioma ERSR ind: -3%

The final two compounds of the part before open the next one.
Results for Cc1ccc(CC(=O)Nc2ncc([N+](=O)[O-])s2)cc1 ?
PTAP TSG101 blk: 0%; A549 viability: -16%; Nrf2 inh: inconclusive; miR-21 reporter: -37%; Nrf2 ARE act: -1%; Glioma ERSR ind: -4%

How did COc1ccc(OC)c(C2NC(=O)NC(C)=C2C(=O)OCc2ccccc2)c1 (stereo not given) do in these assays?
PTAP TSG101 blk: -4%; A549 viability: 7%; Nrf2 inh: -29%; miR-21 reporter: -5%; Nrf2 ARE act: 0%; Glioma ERSR ind: -3%

How did CC1=C(C(=O)OCc2ccc3c(c2)OCO3)C(c2ccc(O)c([N+](=O)[O-])c2)NC(=O)N1 (stereo not given) do in these assays?
PTAP TSG101 blk: 0%; A549 viability: -9%; Nrf2 inh: inconclusive; miR-21 reporter: 25%; Nrf2 ARE act: 0%; Glioma ERSR ind: -7%

How did CC1=C(C(=O)OCc2ccc3c(c2)OCO3)C(c2ccccc2)NC(=O)N1 (stereo not given) do in these assays?
PTAP TSG101 blk: -5%; A549 viability: -2%; Nrf2 inh: 8.2µM*; miR-21 reporter: inconclusive; Nrf2 ARE act: 0%; Glioma ERSR ind: -5%

Results for CCCOc1ccccc1C1NC(=O)NC(C)=C1C(=O)OCCOC (stereo not given) ?
PTAP TSG101 blk: -4%; A549 viability: -1%; Nrf2 inh: 4%; miR-21 reporter: -1%; Nrf2 ARE act: -1%; Glioma ERSR ind: -6%

What do the screens show for `CC1=C(C(=O)OCc2ccc3c(c2)OCO3)C(c2ccccc2OCc2ccccc2)NC(=O)N1` (stereo not given)?
PTAP TSG101 blk: -8%; A549 viability: -21%; Nrf2 inh: 13µM*; miR-21 reporter: 24%; Nrf2 ARE act: 0%; Glioma ERSR ind: -2%

What do the screens show for `CCCOc1ccccc1C1NC(=O)NC(C)=C1C(=O)OCc1ccccc1` (stereo not given)?
PTAP TSG101 blk: -2%; A549 viability: inconclusive; Nrf2 inh: 10µM*; miR-21 reporter: 0%; Nrf2 ARE act: 0%; Glioma ERSR ind: -3%

How did Cc1csc(SCC(=O)N2CCOc3ccc(C(O)C4CCCCC4)cc3C2)n1 (stereo not given) do in these assays?
Glioma ERSR ind: -1%

What do the screens show for `CCOc1ccc(CNC(=O)CN2C(=O)C(c3ccccc3)Oc3cccnc32)cc1` (stereo not given)?
PTAP TSG101 blk: 0%; A549 viability: -2%; Nrf2 inh: 5%; miR-21 reporter: -2%; Nrf2 ARE act: 3%; Glioma ERSR ind: -5%

What do the screens show for `COc1ccc(CNC(=O)CN2C(=O)C(c3ccccc3)Oc3cccnc32)cc1` (stereo not given)?
PTAP TSG101 blk: -2%; A549 viability: inconclusive; Nrf2 inh: 23µM*; miR-21 reporter: -9%; Nrf2 ARE act: 2%; Glioma ERSR ind: 2%

What do the screens show for `Cc1ccccc1Cc1nc2cccnc2n1C1CCN(C(=O)CC2NC(=O)c3ccccc32)CC1` (stereo not given)?
Glioma ERSR ind: -6%

Results for NS(=O)(=O)c1ccc(N/N=C2/CCCCC2C2CCCCC2)c([N+](=O)[O-])c1 (stereo not given) ?
PTAP TSG101 blk: 1%; A549 viability: inconclusive; Nrf2 inh: 21µM*; miR-21 reporter: 21%; Nrf2 ARE act: -2%; Glioma ERSR ind: -15%

Random excerpt: two entries already listed.
How did COc1cc(C(=O)Oc2cccc(Nc3ncnc4ccccc34)c2)cc(OC)c1OC do in these assays?
PTAP TSG101 blk: -9%; A549 viability: -17%; Nrf2 inh: 15µM*; miR-21 reporter: 24%; Nrf2 ARE act: -1%; Glioma ERSR ind: -3%

What do the screens show for `CCOc1ccc(N(CC)S(=O)(=O)N2CCCC(C(=O)Nc3ccc(OC)c(OC)c3)C2)cc1` (stereo not given)?
A549 viability: 12%; Nrf2 inh: 21µM*; miR-21 reporter: -4%; Nrf2 ARE act: 1%; Glioma ERSR ind: -4%

New compounds follow.
How did CSc1nccc(-c2cc(Cl)c3c(c2)CC(CNC(=O)c2nonc2C)O3)n1 (stereo not given) do in these assays?
Glioma ERSR ind: -3%

Results for Cc1cccc(Nc2nc(N)c([N+](=O)[O-])c(N3CC(C)CC(C)C3)n2)c1 (stereo not given) ?
PTAP TSG101 blk: -5%; A549 viability: 21µM*; Nrf2 inh: 16µM*; miR-21 reporter: 18%; Nrf2 ARE act: -2%; Glioma ERSR ind: -13%

Results for Cc1cccc(Nc2nc(N)c([N+](=O)[O-])c(N3CC(C)OC(C)C3)n2)c1 (stereo not given) ?
PTAP TSG101 blk: -2%; A549 viability: inconclusive; Nrf2 inh: 18µM*; miR-21 reporter: 18%; Nrf2 ARE act: 0%; Glioma ERSR ind: -1%

What do the screens show for `Nc1nc(Nc2ccccc2)nc(N2CCOCC2)c1[N+](=O)[O-]`?
PTAP TSG101 blk: -2%; A549 viability: 1%; Nrf2 inh: 9%; miR-21 reporter: -19%; Nrf2 ARE act: 5%; Glioma ERSR ind: 2%
